Reference: PubChem BioAssay (NCI)
“And” between values parts separate entries of the source, which are not always exact repeats. Equal entries are not always repeated. This is a selection; strong and weak results do not stand in their true shares. Some of these compounds have results that are not shown, active ones among them.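 Each cell line was grown in a 96-well plate and treated with one concentration of compound for 48 hours. Values below 10 were considered active.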 The source made the active and inactive calls.

The compounds below were run on A498 renal (assay: NCI-60 one-dose screen, 48 h (100 = growth as untreated, 0 = no growth, -100 = all killed)). Conditions: 10 µM.
With `ClCCN(CCCl)Cc1cc(Cl)cc(Cl)c1` the growth was inactive: 78.6%.
In the case of `N#CC(C#N)=Cc1ccccc1Cl`, the growth is reported as inactive: 107%.
In the case of `ClCCN(CCCl)Cc1ccsc1Br`, the growth is reported as inactive: 61.6%.
With `N#CC(C#N)=Cc1cccc(Br)c1` the growth was inactive: 94.1%.
In the case of `Fc1cccc(CN(CCCl)CCCl)c1`, the growth is reported as inactive: 90.1%.
In the case of `Cc1cc2nc(CN(CCCl)CCCl)[nH]c2cc1C`, the growth is reported as inactive: 76.8%.
In the case of `ClCCN(CCCl)C1c2ccccc2-c2ccccc21`, the growth is reported as inactive: 81.1%.
In the case of `CC(C)(C)N(CCCl)CCCl`, the growth is reported as inactive: 110%.
With `N#CC(C#N)=Cc1ccc(Br)cc1` the growth was inactive: 99% and inactive: 116%.
For `CCOc1ccc([N+](=O)[O-])cc1CN(CCCl)CCCl`, the growth was inactive: 90.1%.
For `CN(C)CCOC(=O)C(O)(c1ccccc1)c1ccccc1`, the growth was inactive: 126%.
`ClCCN(CCCl)Cc1ccc(Cl)c(Cl)c1` was tested, and the growth was inactive: 116%.
For `CC(=O)CI`, the growth was inactive: 114%.
`CCCN(CCCl)CCCl` was tested, and the growth was inactive: 107%.
With `CCNCCCl` the growth was inactive: 99.5%.
`O=C(OCCN1CCCC1)C(O)(c1ccccc1)c1ccccc1` was tested, and the growth was inactive: 107%.
With `COc1ccc(N=C=S)cc1CN(CCCl)CCCl` the growth was inactive: 84.7%.
With `ClCCN(CCCl)C1CCCCC1` the growth was inactive: 115%.
For `CC[N+](C)(C)Cc1cccc(Cc2ccccc2)c1OC(=O)N(C)C`, the growth was inactive: 85.5%.
In the case of `COc1ccc([N+](=O)[O-])cc1CN(CCCl)CCCl`, the growth is reported as inactive: 103%.
In the case of `ClCCCCCC(CCl)NCCCl` (configuration not stated), the growth is reported as inactive: 91.1%.
For `COCc1c(CN(CCCl)CCCl)cnc(C)c1O`, the growth was inactive: 81.3%.
In the case of `CN(CCBr)CCBr`, the growth is reported as inactive: 99.1%.

These compounds were tested on HL-60(TB) leukemia in the same assay as above. Conditions: 10 µM.
`ClCCN(CCCl)Cc1cc(Cl)cc(Cl)c1` was tested, and the growth was inactive: 25.5%.
In the case of `ClCCN(CCCl)Cc1ccsc1Br`, the growth is reported as inactive: 33%.
For `N#CC(C#N)=Cc1cccc(Br)c1`, the growth was inactive: 95.8%.
In the case of `Fc1cccc(CN(CCCl)CCCl)c1`, the growth is reported as inactive: 84.8%.
In the case of `Cc1cc2nc(CN(CCCl)CCCl)[nH]c2cc1C`, the growth is reported as inactive: 61.2%.
`ClCCN(CCCl)C1c2ccccc2-c2ccccc21` was tested, and the growth was inactive: 53.2%.
In the case of `CC(C)(C)N(CCCl)CCCl`, the growth is reported as inactive: 85.2%.
`N#CC(C#N)=Cc1ccc(Br)cc1` was tested, and the growth was inactive: 90.9% and inactive: 112%.
For `CCOc1ccc([N+](=O)[O-])cc1CN(CCCl)CCCl`, the growth was inactive: 99.9%.
`CN(C)CCOC(=O)C(O)(c1ccccc1)c1ccccc1` was tested, and the growth was inactive: 92.5%.
In the case of `ClCCN(CCCl)Cc1ccc(Cl)c(Cl)c1`, the growth is reported as inactive: 85.4%.
In the case of `CC(=O)CI`, the growth is reported as inactive: 97.7%.
For `CCCN(CCCl)CCCl`, the growth was inactive: 103%.
With `BrCCN(CCBr)Cc1ccccc1` the growth was inactive: 55%.
With `CCNCCCl` the growth was inactive: 126%.
`O=C(OCCN1CCCC1)C(O)(c1ccccc1)c1ccccc1` was tested, and the growth was inactive: 141%.
`COc1ccc(N=C=S)cc1CN(CCCl)CCCl` was tested, and the growth was inactive: 20.6%.
For `ClCCN(CCCl)C1CCCCC1`, the growth was inactive: 98.3%.
`CC[N+](C)(C)Cc1cccc(Cc2ccccc2)c1OC(=O)N(C)C` was tested, and the growth was inactive: 98.6%.
For `COc1ccc([N+](=O)[O-])cc1CN(CCCl)CCCl`, the growth was inactive: 90.4%.
`ClCCCCCC(CCl)NCCCl` (configuration not stated) was tested, and the growth was inactive: 41.3%.
`COCc1c(CN(CCCl)CCCl)cnc(C)c1O` was tested, and the growth was inactive: 91.2%.
`CN(CCBr)CCBr` was tested, and the growth was inactive: 92%.

Each compound was assayed on CCRF-CEM leukemia in the same assay as above. Conditions: 10 µM.
For `ClCCN(CCCl)Cc1cc(Cl)cc(Cl)c1`, the growth was inactive: 22.2%.
In the case of `N#CC(C#N)=Cc1ccccc1Cl`, the growth is reported as inactive: 102%.
With `ClCCN(CCCl)Cc1ccsc1Br` the growth was inactive: 23.3%.
`N#CC(C#N)=Cc1cccc(Br)c1` was tested, and the growth was inactive: 95.1%.
With `Fc1cccc(CN(CCCl)CCCl)c1` the growth was inactive: 70.6%.
In the case of `Cc1cc2nc(CN(CCCl)CCCl)[nH]c2cc1C`, the growth is reported as inactive: 46.5%.
For `ClCCN(CCCl)C1c2ccccc2-c2ccccc21`, the growth was inactive: 59.3%.
In the case of `N#CC(C#N)=Cc1ccc(Br)cc1`, the growth is reported as inactive: 97.8% and inactive: 101%.
`CCOc1ccc([N+](=O)[O-])cc1CN(CCCl)CCCl` was tested, and the growth was inactive: 98.8%.
In the case of `CN(C)CCOC(=O)C(O)(c1ccccc1)c1ccccc1`, the growth is reported as inactive: 114%.
`CC(=O)CI` was tested, and the growth was inactive: 117%.
`BrCCN(CCBr)Cc1ccccc1` was tested, and the growth was inactive: 88.1%.
For `CCNCCCl`, the growth was inactive: 105%.
`O=C(OCCN1CCCC1)C(O)(c1ccccc1)c1ccccc1` was tested, and the growth was inactive: 101%.
`COc1ccc(N=C=S)cc1CN(CCCl)CCCl` was tested, and the growth was inactive: 27.1%.
In the case of `ClCCN(CCCl)C1CCCCC1`, the growth is reported as inactive: 97.2%.
In the case of `CC[N+](C)(C)Cc1cccc(Cc2ccccc2)c1OC(=O)N(C)C`, the growth is reported as inactive: 95.6%.
For `COc1ccc([N+](=O)[O-])cc1CN(CCCl)CCCl`, the growth was inactive: 85.5%.
`ClCCCCCC(CCl)NCCCl` (configuration not stated) was tested, and the growth was inactive: 46.2%.
In the case of `COCc1c(CN(CCCl)CCCl)cnc(C)c1O`, the growth is reported as inactive: 80%.
`CN(CCBr)CCBr` was tested, and the growth was inactive: 63.2%.
